Experiments:
[1] = Permeability of the compound assessed as drug transmittance level at 10 uM after 16 hrs by LC-MS detection based PAMPA method; type: physicochemical
[2] = Permeability of the compound at 10 uM after 16 hrs by LC-MS detection based PAMPA method; type: physicochemical; settings: read-out: Peff
[3] = Permeability of the compound at 10 uM after 5 hrs by LC-MS detection based PAMPA method; type: physicochemical; settings: read-out: Peff
[4] = Permeability of the compound assessed as drug transmittance level at 10 uM after 5 hrs by LC-MS detection based PAMPA method; type: physicochemical
[5] = Apparent permeability from apical to basolateral side in low-efflux MDCK cells expressing low levels of endogenous P-glycoprotein at […] incubated for 2 hrs by LC-MS/MS method; type: ADME, cell-based, Canis lupus familiaris; settings: dog
[6] = Permeability of the compound assessed as recovery at 10 uM after 5 hrs by LC-MS detection based PAMPA method

permeability [1] [%]	Papp at 16 h, 10 µM [2] [nm/s]	Papp at 5 h, 10 µM [3] [nm/s]	permeability [4] [%]	Papp A→B at 2 h [5] [nm/s]	recovery [6] [%]	Structure (SMILES)
35	30					CC(C)C[C@@H]1NC(=O)[C@H](Cc2ccc(O)cc2)N(C)C(=O)[C@H]2CCCN2C(=O)[C@H](CC(C)C)NC(=O)[C@H](CC(C)C)N(C)C(=O)[C@@H](CC(C)C)N(C)C1=O
		10	2	8	54	CC(C)C[C@@H]1NC(=O)[C@H]2CCCN2C(=O)[C@H](CC(C)C)N(C)C(=O)C[C@H](O)[C@H](CC(C)C)NC(=O)[C@H](CC(C)C)N(C)C(=O)[C@H](CC(C)C)N(C)C(=O)C[C@@H]1O
		80	28	36	56	CC(C)C[C@@H]1NC(=O)[C@H](CC(C)C)N(C)C(=O)[C@H](CC(C)C)N(C)C(=O)C[C@H](O)[C@H](CC(C)C)NC(=O)[C@@H]2CCCN2C(=O)[C@H](CC(C)C)N(C)C(=O)C[C@@H]1O
		120	41		73	CC(C)C[C@@H]1NC(=O)[C@H](CC(C)C)N(C)C(=O)[C@H](CC(C)C)N(C)C(=O)C[C@@H](O)[C@@H](CC(C)C)NC(=O)[C@H]2CCCN2C(=O)[C@H](CC(C)C)N(C)C(=O)C[C@@H]1O
		70	25	77	40	CC(C)C[C@@H]1NC(=O)[C@H]2CCCN2C(=O)[C@H](CC(C)C)N(C)C(=O)C[C@H](O)[C@H](CC(C)C)NC(=O)[C@H](CC(C)C)N(C)C(=O)[C@@H](CC(C)C)N(C)C(=O)C[C@@H]1O
		20	7	14	96	CC(C)C[C@@H]1NC(=O)[C@@H](CC(C)C)N(C)C(=O)[C@H](CC(C)C)N(C)C(=O)C[C@H](O)[C@H](CC(C)C)NC(=O)[C@H]2CCCN2C(=O)[C@H](CC(C)C)N(C)C(=O)C[C@@H]1O
		200	58	20	68	CC(C)C[C@@H]1NC(=O)[C@H]2CCCN2C(=O)[C@H](CC(C)C)N(C)C(=O)C[C@@H](O)[C@@H](CC(C)C)NC(=O)[C@H](CC(C)C)N(C)C(=O)[C@H](CC(C)C)N(C)C(=O)C[C@@H]1O
		60	24		92	CC(C)C[C@@H]1NC(=O)[C@H]2CCCN2C(=O)[C@@H](CC(C)C)N(C)C(=O)C[C@H](O)[C@H](CC(C)C)NC(=O)[C@H](CC(C)C)N(C)C(=O)[C@H](CC(C)C)N(C)C(=O)C[C@@H]1O
		40	16		26	CC(C)C[C@H]1NC(=O)[C@H]2CCCN2C(=O)[C@H](CC(C)C)N(C)C(=O)C[C@@H](O)[C@@H](CC(C)C)NC(=O)[C@H](CC(C)C)N(C)C(=O)[C@H](CC(C)C)N(C)C(=O)C[C@H]1O
		30	12		26	CC(C)C[C@@H]1NC(=O)[C@@H](CC(C)C)N(C)C(=O)[C@@H](CC(C)C)N(C)C(=O)C[C@@H](O)[C@@H](CC(C)C)NC(=O)[C@H]2CCCN2C(=O)[C@@H](CC(C)C)N(C)C(=O)C[C@@H]1O
		70	25	57	76	CC(C)C[C@@H]1NC(=O)[C@H]2CCCN2C(=O)[C@@H](CC(C)C)N(C)C(=O)C[C@@H](O)[C@@H](CC(C)C)NC(=O)[C@@H](CC(C)C)N(C)C(=O)[C@@H](CC(C)C)N(C)C(=O)C[C@@H]1O
